## Experimental properties from OPERA 2.9

The melting point is given in degrees Celsius.
logP is the log10 of the octanol-water partition coefficient; higher is more lipophilic.
Solubility in water is on a log10 molar scale (set defined at 25 °C).
Vapor pressures (log10 mmHg) refer to near room temperature, 15 to 30 °C; higher is more volatile.
The Henry's law constant is on a log10 scale in atm·m3/mol (set defined at 25 °C); higher favours air over water.
The unbound fraction in human plasma runs from 0 (all bound) to 1 (all free).
Intrinsic clearance (human, µL/min per 10^6 hepatocytes): higher is faster turnover, and 0 stands for none detected.
"n/a" marks a cell with nothing listed here.

SMILES	name	MP (°C)	logP (octanol/water)	water solubility (log10 mol/L)	vapor pressure (log10 mmHg)	log Henry constant (log10 atm·m3/mol)	fraction unbound	intrinsic clearance (µL/min/10^6 cells)
O=S(=O)(c1ccc(Cl)cc1)c1ccc(Cl)cc1	4,4'-Dichlorodiphenyl sulfone	n/a	3.9	n/a	-6.949	n/a	n/a	n/a
CNC(=O)ON=CC(C)(C)SC	Aldicarb	n/a	n/a	n/a	n/a	n/a	0.4808	0.75
Br.CCCNC1CCc2c(O)cccc2C1 (configuration not stated)	n/a	256.5	-0.16	n/a	-9.639	n/a	n/a	n/a
CC(C)OC(=O)OOC(C)(C)C	tert-Butylperoxy isopropyl carbonate	n/a	2.5	-1.904	-0.329	n/a	n/a	n/a
Cc1cccc(C)c1N(Cn1cccn1)C(=O)CCl	Metazachlor	n/a	n/a	-2.79	-6.156	n/a	n/a	n/a
S=P(Oc1ccccc1)(Oc1ccccc1)Oc1ccccc1	Phosphorothioic acid, O,O,O-triphenyl ester	53.1	5	-7.094	n/a	n/a	n/a	n/a
Cc1cnc(C2=NC(=O)C(C)(C(C)C)N2)c(C(=O)O)c1 (configuration not stated)	Imazapic	n/a	n/a	n/a	n/a	n/a	0.5475	0
Brc1ccc(Oc2ccc(Br)cc2Br)cc1	2,4,4'-Tribromodiphenyl ether	64.2	n/a	-6.425	n/a	n/a	n/a	n/a
C#C[C@@]1(O)CC[C@@H]2[C@H]3CC=C4C=C(OCC)CC[C@H]4[C@@H]3CC[C@]21C	n/a	182.8	5.8	-7.044	-8.909	n/a	n/a	n/a
C=CC(=O)OCC1CC2CC1C1CCC(COC(=O)C=C)C21 (configuration not stated)	Tricyclodecanedimethanol diacrylate	n/a	4.6	-4.493	n/a	n/a	n/a	n/a
CC(C)(c1cc(Br)c(OCC2CO2)c(Br)c1)c1cc(Br)c(OCC2CO2)c(Br)c1 (configuration not stated)	n/a	114.1	6.115	-7.395	-6.779	n/a	n/a	n/a
Oc1cc(Cl)ccc1Oc1ccc(Cl)cc1	Soneclosan	73.6	4.6	-4.239	n/a	n/a	n/a	n/a
C[Si](C)(C)CC(O)(Cn1cncn1)c1ccc(F)cc1 (configuration not stated)	Simeconazole	n/a	n/a	-3.71	-6.393	n/a	n/a	n/a
CCOP(=S)(OCC)SCC(=O)NC(C)C	Prothoate	n/a	n/a	n/a	-4.011	-10.18	n/a	n/a
CNC1CCCCC1	N-Methylcyclohexanamine	n/a	n/a	n/a	0.574	-8.934	n/a	n/a
CC1(C)COC(=O)[C@@H]1O	Pantolactone	n/a	-0.352	n/a	-1.974	n/a	n/a	n/a
CCCCC(CC)COC(=O)OOC(C)(C)CC (configuration not stated)	Tert-Amyl peroxy 2-ethylhexyl carbonate	n/a	5.8	-6.088	n/a	n/a	n/a	n/a
COc1nn(C(=O)[N-]S(=O)(=O)c2ccccc2OC(F)(F)F)c(=O)n1C.[Na+]	Flucarbazone-sodium	200	n/a	-0.979	n/a	n/a	n/a	n/a
C[C@]12CC[C@H]3[C@@H](CC[C@@]45O[C@@H]4C(O)=C(C#N)C[C@]35C)[C@@H]1CC[C@@H]2O	Trilostane	n/a	3	-3.745	n/a	n/a	n/a	n/a
CCc1nn(C)c(C(=O)NCc2ccc(Oc3ccc(C)cc3)cc2)c1Cl	Tolfenpyrad	n/a	n/a	-6.64	-8.426	n/a	n/a	n/a
CCOP(=O)(NC(C)C)Oc1ccc(S(C)=O)c(C)c1 (configuration not stated)	Fenamiphos sulfoxide	n/a	n/a	-2.489	n/a	-9.438	n/a	n/a
Clc1cc2oc3c(Cl)c(Cl)c(Cl)c(Cl)c3c2cc1Cl	1,2,3,4,7,8-Hexachlorodibenzofuran	226	n/a	-10.66	n/a	n/a	n/a	n/a
CCN=C=NCCCN(C)C.Cl	1-Ethyl-3-(3'-dimethylaminopropyl)carbodiimide hydrochloride	n/a	-2.98	n/a	-4.736	n/a	n/a	n/a
CCOP(=S)(OCC)Oc1nc(Cl)n(C(C)C)n1	Isazofos	n/a	n/a	n/a	n/a	n/a	0.0659	19.53

3 of these entries, quoted again:

SMILES	name	MP (°C)	logP (octanol/water)	water solubility (log10 mol/L)	vapor pressure (log10 mmHg)	log Henry constant (log10 atm·m3/mol)	fraction unbound	intrinsic clearance (µL/min/10^6 cells)
S=P(Oc1ccccc1)(Oc1ccccc1)Oc1ccccc1	Phosphorothioic acid, O,O,O-triphenyl ester	53.1	5	-7.094	n/a	n/a	n/a	n/a
Oc1cc(Cl)ccc1Oc1ccc(Cl)cc1	Soneclosan	73.6	4.6	-4.239	n/a	n/a	n/a	n/a
Clc1cc2oc3c(Cl)c(Cl)c(Cl)c(Cl)c3c2cc1Cl	1,2,3,4,7,8-Hexachlorodibenzofuran	226	n/a	-10.66	n/a	n/a	n/a	n/a

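The numbers are reported measurements, compiled and curated for the OPERA QSAR suite. The files give a single number for a compound and property, which may rest on several reports. Method and conditions are not stated for these values. Where a salt, mixture or single isomer is drawn, the source does not say that exactly this form was tested. Some upstream entries may be estimates or bounds without being marked so.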

From the experimental data distributed with OPERA 2.9.